Laboratory results from PubChem BioAssay AID493180 (Broad Institute, 2011).
This is a selection; strong and weak results do not stand in their true shares. The source made the active and inactive calls.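 The calls were made as follows: active = fitted curve reaching 40% activation at or below the top valid tested dose; inactive = the rest, or activity counter to the expected direction.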

Test: HRE-driven luciferase induction, U2OS – cell-based, luminescence, dry powder, set 3, dose response (AID 493180)
Conditions: U2OS HRE-luciferase reporter, HIF pathway activation, at 38 µM (top of the series)
In short: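 System: U2OS 3xHRE-luciferase reporter cells. Input: 6,000 cells/well. Dosing: 8-point series in 3-fold steps, 7.5 mM top stock. Detection: Steady-Glo luminescence.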

In the case of `O=c1[nH]c2ccccc2n1C1CCN(Cc2ccc(O)c3ncccc23)CC1`, the activation is reported as inactive: 2.17%.
